Test results: PubChem BioAssay (EPA / NIEHS)
Values joined by “and” are separate entries in the source; they are usually repeats but may differ in a detail not shown here. Equal entries are not always repeated. The entries are a selection whose mix differs from that of the whole data set. Results filed as inconclusive are left out. Some compounds were tested as several samples or in several runs, with calls that do not always agree. Active and inactive are the calls of the source. How the source made its calls, unless noted: active means hit-call score of the fitted dose curve at least 0.9, where 1 is the maximum; inconclusive means response in the unintended direction; inactive means score below 0.9.

Amino acid sequences for entries named in this document (tags omitted). A change or cut given only in a name is not applied to a line headed by its entry.
UniProt P33261, whole entry, looked up: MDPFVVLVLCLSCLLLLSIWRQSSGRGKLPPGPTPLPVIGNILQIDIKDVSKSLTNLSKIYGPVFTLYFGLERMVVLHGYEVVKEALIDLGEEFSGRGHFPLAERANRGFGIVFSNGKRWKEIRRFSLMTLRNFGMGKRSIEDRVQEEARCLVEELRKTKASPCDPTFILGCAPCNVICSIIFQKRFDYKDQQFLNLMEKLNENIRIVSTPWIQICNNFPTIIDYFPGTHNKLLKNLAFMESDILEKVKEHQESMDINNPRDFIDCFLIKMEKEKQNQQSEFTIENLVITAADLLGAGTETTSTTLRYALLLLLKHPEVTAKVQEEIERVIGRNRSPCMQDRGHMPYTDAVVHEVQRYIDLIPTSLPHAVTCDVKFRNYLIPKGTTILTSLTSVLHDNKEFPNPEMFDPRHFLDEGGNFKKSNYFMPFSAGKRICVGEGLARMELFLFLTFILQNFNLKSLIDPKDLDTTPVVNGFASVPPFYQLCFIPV
UniProt P11711: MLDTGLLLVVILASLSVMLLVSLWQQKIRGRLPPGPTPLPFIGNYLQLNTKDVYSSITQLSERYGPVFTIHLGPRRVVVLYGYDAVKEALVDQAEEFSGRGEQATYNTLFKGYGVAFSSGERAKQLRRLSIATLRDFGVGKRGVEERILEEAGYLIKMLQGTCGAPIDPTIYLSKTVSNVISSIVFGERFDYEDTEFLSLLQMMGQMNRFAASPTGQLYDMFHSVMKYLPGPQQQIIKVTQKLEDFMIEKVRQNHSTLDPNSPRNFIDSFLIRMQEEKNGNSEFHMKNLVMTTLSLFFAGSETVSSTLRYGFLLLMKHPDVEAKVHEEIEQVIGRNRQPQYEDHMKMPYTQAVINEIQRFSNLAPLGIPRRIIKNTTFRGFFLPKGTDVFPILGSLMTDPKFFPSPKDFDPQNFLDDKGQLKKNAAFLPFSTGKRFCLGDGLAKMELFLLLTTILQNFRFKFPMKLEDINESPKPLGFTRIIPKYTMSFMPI
UniProt P15149: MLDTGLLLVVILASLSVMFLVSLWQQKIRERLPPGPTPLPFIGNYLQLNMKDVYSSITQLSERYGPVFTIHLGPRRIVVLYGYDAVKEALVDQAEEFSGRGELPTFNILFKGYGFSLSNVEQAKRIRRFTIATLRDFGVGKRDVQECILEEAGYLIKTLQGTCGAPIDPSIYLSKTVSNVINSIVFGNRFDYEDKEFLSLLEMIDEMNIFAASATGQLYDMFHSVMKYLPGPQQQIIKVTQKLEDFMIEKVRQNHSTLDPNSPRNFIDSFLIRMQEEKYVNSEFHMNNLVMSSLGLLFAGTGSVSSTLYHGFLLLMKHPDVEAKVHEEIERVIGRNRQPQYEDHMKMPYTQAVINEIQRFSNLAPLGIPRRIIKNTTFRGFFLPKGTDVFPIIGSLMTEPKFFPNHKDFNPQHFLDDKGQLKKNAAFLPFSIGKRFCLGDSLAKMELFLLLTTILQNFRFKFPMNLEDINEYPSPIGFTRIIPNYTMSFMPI
UniProt P20814, whole entry, looked up: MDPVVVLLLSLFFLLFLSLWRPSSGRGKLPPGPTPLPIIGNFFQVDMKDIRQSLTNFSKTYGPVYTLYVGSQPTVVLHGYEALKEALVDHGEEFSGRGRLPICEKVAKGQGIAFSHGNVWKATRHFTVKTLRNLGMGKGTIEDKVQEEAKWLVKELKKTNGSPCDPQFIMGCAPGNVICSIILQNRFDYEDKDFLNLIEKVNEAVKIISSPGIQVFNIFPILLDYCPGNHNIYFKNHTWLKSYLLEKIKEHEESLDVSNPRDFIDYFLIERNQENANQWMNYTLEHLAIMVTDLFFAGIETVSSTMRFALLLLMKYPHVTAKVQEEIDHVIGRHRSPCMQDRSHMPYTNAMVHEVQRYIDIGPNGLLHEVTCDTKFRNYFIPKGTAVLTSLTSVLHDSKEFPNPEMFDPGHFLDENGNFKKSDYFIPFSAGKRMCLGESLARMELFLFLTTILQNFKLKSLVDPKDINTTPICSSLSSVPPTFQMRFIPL
UniProt P10633: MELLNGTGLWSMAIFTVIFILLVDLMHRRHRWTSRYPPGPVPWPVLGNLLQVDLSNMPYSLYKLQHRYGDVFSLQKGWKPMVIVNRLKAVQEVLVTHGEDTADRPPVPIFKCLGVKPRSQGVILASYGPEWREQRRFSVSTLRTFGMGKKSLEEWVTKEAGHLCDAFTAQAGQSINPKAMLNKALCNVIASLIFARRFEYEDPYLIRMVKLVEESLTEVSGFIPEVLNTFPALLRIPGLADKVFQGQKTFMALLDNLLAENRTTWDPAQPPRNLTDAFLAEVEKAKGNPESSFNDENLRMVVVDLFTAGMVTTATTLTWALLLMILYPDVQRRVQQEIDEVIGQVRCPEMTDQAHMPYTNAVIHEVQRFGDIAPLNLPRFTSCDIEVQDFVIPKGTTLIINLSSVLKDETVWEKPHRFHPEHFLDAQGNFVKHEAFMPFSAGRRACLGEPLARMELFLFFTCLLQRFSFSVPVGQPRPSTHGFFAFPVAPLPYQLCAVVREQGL
UniProt P10634: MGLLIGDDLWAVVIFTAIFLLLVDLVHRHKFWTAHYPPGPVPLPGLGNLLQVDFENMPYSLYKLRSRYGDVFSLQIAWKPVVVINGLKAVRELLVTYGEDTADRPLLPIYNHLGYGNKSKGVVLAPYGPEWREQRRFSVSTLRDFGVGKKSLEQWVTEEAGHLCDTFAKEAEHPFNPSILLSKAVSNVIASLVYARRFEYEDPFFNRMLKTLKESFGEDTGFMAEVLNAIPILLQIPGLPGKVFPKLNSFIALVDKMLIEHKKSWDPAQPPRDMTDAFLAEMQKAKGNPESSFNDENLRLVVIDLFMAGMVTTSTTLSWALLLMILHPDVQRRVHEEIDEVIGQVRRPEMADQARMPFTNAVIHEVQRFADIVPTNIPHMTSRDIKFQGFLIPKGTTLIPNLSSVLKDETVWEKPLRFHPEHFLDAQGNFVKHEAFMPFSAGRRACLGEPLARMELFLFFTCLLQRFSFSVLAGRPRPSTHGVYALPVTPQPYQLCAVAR
UniProt P05183: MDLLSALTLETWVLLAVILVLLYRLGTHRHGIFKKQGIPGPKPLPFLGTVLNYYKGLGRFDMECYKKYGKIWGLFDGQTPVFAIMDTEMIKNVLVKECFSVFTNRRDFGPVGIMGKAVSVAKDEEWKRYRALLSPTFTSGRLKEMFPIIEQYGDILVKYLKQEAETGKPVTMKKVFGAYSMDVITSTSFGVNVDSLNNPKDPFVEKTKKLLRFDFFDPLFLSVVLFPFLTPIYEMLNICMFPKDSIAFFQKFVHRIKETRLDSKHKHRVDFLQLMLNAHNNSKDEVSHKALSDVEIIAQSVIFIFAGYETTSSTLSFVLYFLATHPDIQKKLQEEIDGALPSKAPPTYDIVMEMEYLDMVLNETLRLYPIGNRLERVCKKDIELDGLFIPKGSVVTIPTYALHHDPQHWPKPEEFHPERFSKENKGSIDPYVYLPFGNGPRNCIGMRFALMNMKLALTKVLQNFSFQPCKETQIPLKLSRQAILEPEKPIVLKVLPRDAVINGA
UniProt P56817: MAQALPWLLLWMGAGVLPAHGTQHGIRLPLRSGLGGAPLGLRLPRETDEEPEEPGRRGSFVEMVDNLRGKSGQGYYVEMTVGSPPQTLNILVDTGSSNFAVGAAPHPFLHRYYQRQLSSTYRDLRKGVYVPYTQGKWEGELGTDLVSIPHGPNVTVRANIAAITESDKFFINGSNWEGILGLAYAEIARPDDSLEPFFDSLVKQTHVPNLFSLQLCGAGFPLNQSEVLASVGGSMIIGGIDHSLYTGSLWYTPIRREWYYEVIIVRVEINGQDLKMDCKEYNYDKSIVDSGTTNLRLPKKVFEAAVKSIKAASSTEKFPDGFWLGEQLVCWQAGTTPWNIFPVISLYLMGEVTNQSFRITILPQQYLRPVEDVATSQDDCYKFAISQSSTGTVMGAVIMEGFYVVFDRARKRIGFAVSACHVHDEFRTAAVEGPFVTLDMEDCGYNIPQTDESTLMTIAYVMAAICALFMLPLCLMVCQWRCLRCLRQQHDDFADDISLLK
UniProt Q92851: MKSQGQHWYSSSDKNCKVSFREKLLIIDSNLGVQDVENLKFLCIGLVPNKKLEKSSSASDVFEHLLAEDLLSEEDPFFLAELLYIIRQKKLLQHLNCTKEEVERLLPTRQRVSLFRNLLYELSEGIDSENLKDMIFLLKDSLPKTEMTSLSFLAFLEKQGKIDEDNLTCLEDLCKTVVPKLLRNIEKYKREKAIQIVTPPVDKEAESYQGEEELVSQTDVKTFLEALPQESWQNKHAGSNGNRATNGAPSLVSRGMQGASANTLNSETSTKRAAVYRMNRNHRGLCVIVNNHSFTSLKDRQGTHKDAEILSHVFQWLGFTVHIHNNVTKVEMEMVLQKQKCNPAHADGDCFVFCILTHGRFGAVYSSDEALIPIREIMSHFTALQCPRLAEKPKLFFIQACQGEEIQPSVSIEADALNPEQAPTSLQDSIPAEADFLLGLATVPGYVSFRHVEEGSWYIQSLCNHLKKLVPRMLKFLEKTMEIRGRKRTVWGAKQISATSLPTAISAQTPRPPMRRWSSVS
UniProt O14965: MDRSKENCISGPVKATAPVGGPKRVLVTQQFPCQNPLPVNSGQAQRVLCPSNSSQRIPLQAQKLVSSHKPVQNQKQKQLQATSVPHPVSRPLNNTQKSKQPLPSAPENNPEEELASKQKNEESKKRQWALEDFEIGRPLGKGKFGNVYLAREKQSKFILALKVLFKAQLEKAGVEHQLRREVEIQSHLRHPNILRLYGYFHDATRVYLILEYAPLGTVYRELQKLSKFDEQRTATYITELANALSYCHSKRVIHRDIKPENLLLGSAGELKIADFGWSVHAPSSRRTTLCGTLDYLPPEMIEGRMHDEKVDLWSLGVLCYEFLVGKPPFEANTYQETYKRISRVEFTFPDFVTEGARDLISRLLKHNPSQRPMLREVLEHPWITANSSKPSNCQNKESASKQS
UniProt P48730: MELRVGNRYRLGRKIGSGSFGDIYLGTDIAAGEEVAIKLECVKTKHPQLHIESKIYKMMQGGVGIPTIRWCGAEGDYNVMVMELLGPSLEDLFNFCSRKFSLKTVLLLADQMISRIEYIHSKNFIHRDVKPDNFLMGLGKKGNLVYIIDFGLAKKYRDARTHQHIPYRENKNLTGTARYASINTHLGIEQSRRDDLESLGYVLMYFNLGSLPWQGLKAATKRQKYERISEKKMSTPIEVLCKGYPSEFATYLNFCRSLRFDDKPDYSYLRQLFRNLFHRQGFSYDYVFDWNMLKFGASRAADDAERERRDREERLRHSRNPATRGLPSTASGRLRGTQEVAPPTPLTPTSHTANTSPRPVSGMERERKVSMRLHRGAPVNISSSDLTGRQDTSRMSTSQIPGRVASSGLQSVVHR
UniProt P07333, whole entry, looked up: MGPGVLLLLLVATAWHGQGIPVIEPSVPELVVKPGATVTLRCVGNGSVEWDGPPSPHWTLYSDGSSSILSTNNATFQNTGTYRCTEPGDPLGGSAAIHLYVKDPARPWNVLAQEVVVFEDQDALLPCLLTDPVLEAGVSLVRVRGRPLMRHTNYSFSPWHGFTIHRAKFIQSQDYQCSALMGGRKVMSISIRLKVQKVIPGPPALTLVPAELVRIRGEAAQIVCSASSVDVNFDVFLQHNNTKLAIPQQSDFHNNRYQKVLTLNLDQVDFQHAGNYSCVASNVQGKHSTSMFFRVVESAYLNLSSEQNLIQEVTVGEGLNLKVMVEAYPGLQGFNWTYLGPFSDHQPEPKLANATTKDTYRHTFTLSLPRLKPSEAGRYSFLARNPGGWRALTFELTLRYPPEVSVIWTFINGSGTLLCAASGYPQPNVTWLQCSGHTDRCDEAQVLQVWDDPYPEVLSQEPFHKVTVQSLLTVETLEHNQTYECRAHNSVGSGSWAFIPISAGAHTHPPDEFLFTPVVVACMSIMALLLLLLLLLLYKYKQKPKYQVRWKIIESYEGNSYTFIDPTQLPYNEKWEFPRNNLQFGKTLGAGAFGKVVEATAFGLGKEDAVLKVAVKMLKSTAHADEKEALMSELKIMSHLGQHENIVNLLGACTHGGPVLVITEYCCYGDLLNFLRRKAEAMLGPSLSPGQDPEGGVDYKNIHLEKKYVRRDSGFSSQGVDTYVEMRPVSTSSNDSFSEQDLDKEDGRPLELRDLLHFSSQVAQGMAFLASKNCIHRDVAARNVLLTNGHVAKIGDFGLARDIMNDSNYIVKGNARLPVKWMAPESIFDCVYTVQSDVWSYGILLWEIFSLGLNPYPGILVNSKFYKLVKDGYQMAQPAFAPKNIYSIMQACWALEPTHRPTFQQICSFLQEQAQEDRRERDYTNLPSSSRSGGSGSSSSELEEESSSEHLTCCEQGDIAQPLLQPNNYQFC
UniProt P51452: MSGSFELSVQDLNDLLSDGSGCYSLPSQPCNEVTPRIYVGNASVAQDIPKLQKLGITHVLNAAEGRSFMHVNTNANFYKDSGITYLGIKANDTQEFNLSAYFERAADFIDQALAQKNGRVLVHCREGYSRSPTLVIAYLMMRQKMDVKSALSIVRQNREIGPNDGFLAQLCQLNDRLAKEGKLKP

What was measured:
[1] = molecular target: Cytochrome P450 2C19 (Homo sapiens) (UniProt P33261); test: NVS_ADME_hCYP2C19: NovaScreen (NVS) CYP450-related Enzyme Activity (ADME) Assay for human CYP2C19 (AID 2283113);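 on AC50: potency for inhibition seen as loss of fluorescent signal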
Method in brief: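 Biochemical CYP2C19 inhibition screen: insect-cell recombinant protein plus fluorescent substrate, 1 h, fluorescence intensity. Acetonitrile defined baseline activity. Single 10 uM concentration in duplicate, with concentration-response follow-up for actives.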

[2] = molecular target: rat CYP2A1, Cyp2a1 (gene 24894) (UniProt P11711); test: NVS_ADME_rCYP2A1: NovaScreen (NVS) CYP450-related Enzyme Activity (ADME) Assay for rat CYP2A1 (AID 2283114; active means hit-call score of the fitted dose curve at least 0.9, where 1 is the maximum; inactive means score below 0.9)
Method in brief: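 Recombinant rat CYP2A1, cell-free, fluorogenic substrate turnover read by fluorescence intensity 0.75 h after dosing. Primary screen at 10 uM in duplicate; actives rerun as concentration-response up to 20 uM; loss of signal versus acetonitrile control.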

[3] = molecular target: rat CYP2A2, Cyp2a2 (gene 24895) (UniProt P15149); test: NVS_ADME_rCYP2A2: NovaScreen (NVS) CYP450-related Enzyme Activity (ADME) Assay for rat CYP2A2 (AID 2283116)
Method in brief: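 Cell-free recombinant rat CYP2A2 activity with fluorogenic substrate, fluorescence read 0.2 h after dosing. Chemicals screened at 10 uM in duplicate, hits then run in concentration-response up to 20 uM; signal loss versus acetonitrile baseline.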

[4] = molecular target: rat CYP2C11, Cyp2c11 (gene 29277) (UniProt P08683); test: NVS_ADME_rCYP2C11: NovaScreen (NVS) CYP450-related Enzyme Activity (ADME) Assay for rat CYP2C11 (AID 2283118)
Method in brief: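 Cell-free recombinant rat enzyme with fluorescent substrate; readout 0.33 h after dosing, loss of signal versus acetonitrile control. Initial duplicate single-point at 10 uM; actives rerun in concentration series.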

[5] = molecular target: rat CYP2C12, Cyp2c12 (gene 25011) (UniProt P11510); test: NVS_ADME_rCYP2C12: NovaScreen (NVS) CYP450-related Enzyme Activity (ADME) Assay for rat CYP2C12 (AID 2283119)
Method in brief: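 Cell-free recombinant rat CYP2C12 activity read by fluorescence 0.5 h after dosing; loss of signal versus acetonitrile control. Primary screen in duplicate at 10 uM; actives then run in concentration-response format.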

[6] = tested on: rat CYP2C6, gene 293989; test: NVS_ADME_rCYP2C6: NovaScreen (NVS) CYP450-related Enzyme Activity (ADME) Assay for rat CYP2C6 (AID 2283120)
Method in brief: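 Cell-free recombinant rat CYP2C6 with fluorogenic substrate, read by fluorescence 1 h after dosing; acetonitrile as negative control. Primary screen at 10 uM in duplicate, actives then in concentration-response up to 20 uM.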

[7] = molecular target: rat CYP2C13, Cyp2c13 (gene 171521) (UniProt P20814); test: NVS_ADME_rCYP2C13: NovaScreen (NVS) CYP450-related Enzyme Activity (ADME) Assay for rat CYP2C13 (AID 2283121)
Method in brief: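 Recombinant rat CYP2C13 with fluorogenic substrate, 0.75 h cell-free incubation; primary screen in duplicate at 10 uM, actives followed in concentration series. Fluorescence loss relative to acetonitrile control indicates inhibition.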

[8] = molecular target: rat CYP2D1, Cyp2d1 (gene 266684) (UniProt P10633); test: NVS_ADME_rCYP2D1: NovaScreen (NVS) CYP450-related Enzyme Activity (ADME) Assay for rat CYP2D1 (AID 2283122)
Method in brief: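 Cell-free fluorescence enzyme-activity assay on extracted rat CYP2D1 protein, read 0.75 h after dosing. Primary screen in duplicate at 10 uM; qualifying chemicals then run in concentration-response to 20 uM max, loss-of-signal versus acetonitrile baseline.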

[9] = molecular target: rat CYP2D2, Cyp2d26 (gene 25053) (UniProt P10634); test: NVS_ADME_rCYP2D2: NovaScreen (NVS) CYP450-related Enzyme Activity (ADME) Assay for rat CYP2D2 (AID 2283124)
Method in brief: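 Recombinant rat CYP2D2 in a cell-free fluorogenic activity assay, fluorescence read 0.75 h after dosing. Primary screen in duplicate at 10 uM; actives re-run singly in concentration-response to 20 uM, relative to acetonitrile.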

[10] = tested on: rat CYP3A1, gene 25642; test: NVS_ADME_rCYP3A1: NovaScreen (NVS) CYP450-related Enzyme Activity (ADME) Assay for rat CYP3A1 (AID 2283126)
Method in brief: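 Cell-free recombinant CYP assay with fluorescent substrate, read 0.5 h after dosing. Screened at 10 uM in duplicate, hits at up to 20 uM in concentration-response; loss of signal versus acetonitrile baseline.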

[11] = molecular target: rat CYP3A2, Cyp3a2 (gene 266682) (UniProt P05183); test: NVS_ADME_rCYP3A2: NovaScreen (NVS) CYP450-related Enzyme Activity (ADME) Assay for rat CYP3A2 (AID 2283128)
Method in brief: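 Cell-free rat CYP3A2 enzyme assay with fluorescent substrate, read 0.5 h after dosing. Primary duplicate screen at 10 uM; actives run in concentration-response up to 20 uM, relative to acetonitrile baseline.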

[12] = molecular target: human Beta-secretase (BACE), BACE1 (gene 23621) (UniProt P56817); test: NVS_ENZ_hBACE: NovaScreen (NVS) Enzymatic Assay for human Beta-secretase (BACE) (AID 2283140);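 further: hits are inhibitors that reduce fluorescent substrate signal versus DMSO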
Method in brief: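 Cell-free fluorescence-intensity assay of recombinant BACE1 expressed in SF9 cells, read 1 hour after dosing. Loss of signal indicates reduced protease activity, fitted relative to DMSO negative control. Primary screen at 25 uM in duplicate; actives followed in concentration series.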

[13] = molecular target: human Caspase 10 (CASP10), CASP10 (gene 843) (UniProt Q92851); test: NVS_ENZ_hCASP10: NovaScreen (NVS) Enzymatic Assay for human Caspase 10 (CASP10) (AID 2283133)
Method in brief: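 Recombinant human caspase-10 from E. coli, cell-free fluorogenic substrate assay read 1 h after dosing. Primary duplicate screen at 25 uM; hits (e.g. ≥30% inhibition) run singly in concentration-response up to 50 uM, normalised to DMSO.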

[14] = molecular target: human Aurora Kinase A - serine/threonine-protein Kinase 6 (AurA), AURKA (gene 6790) (UniProt O14965); test: NVS_ENZ_hAurA: NovaScreen (NVS) Enzymatic Assay for human Aurora Kinase A - serine/threonine-protein Kinase 6 (AurA) (AID 2283142)
Method in brief: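 Cell-free enzymatic assay with human Aurora A, 1 hour after dosing. Fluorescent substrate turnover detected after electrophoretic mobility shift separation of substrate and product. Screened at 25 uM, actives retested in concentration-response up to 50 uM.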

[15] = molecular target: human Caspase 8 (CASP8), CASP8 (gene 841) (UniProt Q14790); test: NVS_ENZ_hCASP8: NovaScreen (NVS) Enzymatic Assay for human Caspase 8 (CASP8) (AID 2283146)
Method in brief: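 E. coli-expressed enzyme was used in a cell-free fluorogenic substrate assay read 1 h after dosing. Loss of signal was scored relative to DMSO, and the primary screen was run in duplicate at 25 uM.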

[16] = molecular target: human Casein Kinase 1-delta (CK1D), CSNK1D (gene 1453) (UniProt P48730); test: NVS_ENZ_hCK1D: NovaScreen (NVS) Enzymatic Assay for human Casein Kinase 1-delta (CK1D) (AID 2283148)
Method in brief: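 Recombinant human CK1-delta, cell-free; fluorescent substrate with electrophoretic mobility-shift separation of product, read 1 h after dosing. Single 25 uM duplicate screen, then concentration-response up to 50 uM; loss of signal vs DMSO.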

[17] = molecular target: human Colony Stimulating Factor 1 Receptor (CSF1R), CSF1R (gene 1436) (UniProt P07333); test: NVS_ENZ_hCSF1R: NovaScreen (NVS) Enzymatic Assay for human Colony Stimulating Factor 1 Receptor (CSF1R) (AID 2283150)
Method in brief: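 Cell-free recombinant human CSF1R kinase with fluorescent substrate, product separated by electrophoretic mobility shift; read 1 h after dosing. Primary screen at 25 uM in duplicate, actives then in concentration-response up to 50 uM, relative to DMSO.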

[18] = molecular target: human Epidermal Growth Factor Receptor (EGFR), EGFR (gene 1956) (UniProt P00533); test: NVS_ENZ_hEGFR: NovaScreen (NVS) Enzymatic Assay for human Epidermal Growth Factor Receptor (EGFR) (AID 2283151)
Method in brief: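 Cell-free kinase assay, fluorescence plus electrophoretic mobility shift separating substrate and product, read 1 hour after dosing; loss of signal vs DMSO. Duplicate screen at 25 uM, then concentration-response to 50 uM.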

[19] = molecular target: human Dual Specificity Protein Phosphatase 3 (DUSP3), DUSP3 (gene 1845) (UniProt P51452); test: NVS_ENZ_hDUSP3: NovaScreen (NVS) Enzymatic Assay for human Dual Specificity Protein Phosphatase 3 (DUSP3) (AID 2283152);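 further: phosphatase activity of recombinant human DUSP3 on a fluorogenic substrate without cells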
Method in brief: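 Cell-free assay with recombinant human DUSP3 and fluorogenic substrate, read by fluorescence intensity. Primary screen ran duplicate at 25 uM; actives followed up in concentration series; loss of signal versus DMSO scored.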

[20] = tested on: rat CYP2B1, gene 24300; test: NVS_ADME_rCYP2B1: NovaScreen (NVS) CYP450-related Enzyme Activity (ADME) Assay for rat CYP2B1 (AID 2283117)
Procedure: NVS_ADME_rCYP2B1 is a biochemical, single-readout assay that uses extracted gene-proteins in a cell-free assay. Measurements were taken 0.75 hour after chemical dosing in a 96-well plate.NVS_ADME_rCYP2B1 is one of one assay component(s) measured or calculated from the NVS_ADME_rCYP2B1 assay. It is designed to make measurements of enzyme activity, a form of enzyme reporter, as detected with fluorescence intensity signals by Fluorescence technology.Data from the assay component NVS_ADME_rCYP2B1 was analyzed into 1 assay endpoint. This assay endpoint, NVS_ADME_rCYP2B1, was analyzed in the positive analysis fitting direction relative to Acetonitrile as the negative control and baseline of activity. Using a type of enzyme reporter, loss-of-signal activity can be used to understand changes in the enzymatic activity as they relate to the gene Cyp2b1. Furthermore, this assay endpoint can be referred to as a primary readout, because this assay has produced multiple assay endpoints where this one serves a enzymatic activity function. To generalize the intended target to other relatable targets, this assay endpoint is annotated to the cyp intended target family, where the subfamily is xenobiotic metabolism. […]

Measured: AC50

CC(C)OP(=S)(OC(C)C)SCCNS(=O)(=O)c1ccccc1
inactive: [7]
active: [1] 131 nM and 96.2 nM and 113 nM | [2] 539 nM and 495 nM and 456 nM | [3] 1.12 µM and 782 nM and 1.15 µM | [4] 326 nM and 351 nM and 296 nM | [5] 2.76 µM and 1.63 µM and 799 nM | [6] 336 nM and 273 nM and 349 nM | [7] 2.05 µM and 2.61 µM | [8] 1.45 µM and 832 nM and 1.27 µM | [9] 376 nM and 278 nM and 274 nM | [10] 266 nM and 270 nM and 242 nM | [11] 218 nM and 182 nM and 198 nM | [12] 8.47 µM and 10.3 µM and 11 µM

Cc1cc([N+](=O)[O-])cc([N+](=O)[O-])c1O
inactive: [13] | [14] | [15] | [16] | [17] | [18]

CN(C(=O)Cc1cccc2occc12)[C@H]1CC[C@@]2(CCCO2)C[C@@H]1N1CCCC1
inactive: [14]
active: [1] 6.95 µM | [19] 14.8 µM

O=C1C2CC=CCC2C(=O)N1SC(Cl)(Cl)C(Cl)Cl (stereo not given)
active: [20] 0.204 µM
inactive: [1] | [5]
